Experimental findings from ChEMBL document CHEMBL4251577, “Synthesis and antiproliferative activity of pyrrolo[2,3-b]pyridine derivatives bearing the 1,8-naphthyridin-2-one moiety” (Eur J Med Chem, 2018) are described below.

The species named for assay [1] is Homo sapiens. Put plainly: Selectivity index, ratio of IC50 for VEGFR2 (unknown origin) to IC50 for cMET (unknown origin).
For assay [2], the species on record is Homo sapiens. Put plainly: Selectivity index, ratio of IC50 for EGFR (unknown origin) to IC50 for cMET (unknown origin).
For assay [3], the species on record is Homo sapiens. Put plainly: Selectivity index, ratio of IC50 for cKIT (unknown origin) to IC50 for cMET (unknown origin).

For the molecule `O=C(Nc1ccc(Oc2ccnc3[nH]ccc23)c(F)c1)c1cc2cccnc2n(-c2ccc(F)cc2)c1=O`, the Ratio IC50 in the assay filed under Homo sapiens [1] was 79.3; in the assay listed under Homo sapiens [2], 330; in the assay listed under Homo sapiens [3], 356.
